For 56 compounds, inhibition results are on record in PubChem BioAssay AID504634 (The Scripps Research Institute Molecular Screening Center, 2011).

Sequences of proteins named here, by UniProt entry; tags and fusion partners are left off.
UniProt P47898, whole entry, looked up: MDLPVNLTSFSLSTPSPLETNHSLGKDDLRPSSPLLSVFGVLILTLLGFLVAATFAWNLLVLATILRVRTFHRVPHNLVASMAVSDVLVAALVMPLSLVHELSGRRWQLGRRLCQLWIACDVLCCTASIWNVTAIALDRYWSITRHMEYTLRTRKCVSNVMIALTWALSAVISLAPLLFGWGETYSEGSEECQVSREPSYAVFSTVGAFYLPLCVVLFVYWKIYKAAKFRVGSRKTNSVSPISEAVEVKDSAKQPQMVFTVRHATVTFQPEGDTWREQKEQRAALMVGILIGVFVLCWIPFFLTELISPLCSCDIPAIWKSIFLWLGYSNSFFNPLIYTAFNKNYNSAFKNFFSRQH

The entries are a selection whose mix differs from that of the whole data set. Active and inactive are the calls of the source. Cut-off read from the data, not from the text of the source: active = inhibition mostly above about 23% (no sharp cut-off); inactive = mostly below about 18%.

For this test, the target named is 5-hydroxytryptamine receptor 5A (Homo sapiens) (UniProt P47898). The test is described as follows: HTR5A inverse agonists in luminescence cell assay, primary screen, counter-screen for OPRM1-OPRD1 heterodimer inverse agonist project, full-deck HTS (AID 504634).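 Note: 0% = cells with DMSO and 100% = no-cell wells with DMSO.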 The conditions noted are these: HTR5A cell line, inverse agonism, at 9.3 µM, stronger effect = higher value. In general terms: A counterscreen serves to expose hits that act by an unwanted route or on another target.
As for `O=C(Cn1c(C(F)(F)F)nc2ccccc21)NCCN1CCCC1`, the inhibition was inactive: -4.74%.

Take `Cc1cccc(C)c1NC(=O)N1CCC(n2c(=O)[nH]c3ccccc32)CC1`: the inhibition is inactive: -21.1%.

Consider `c1ccc2c(c1)nc(-c1ccncc1)n2CCNc1nc(CN2CCCCC2)cs1`, for which the inhibition was inactive: -13.1%.

For `CCn1cc(Cl)c(C(=O)Nc2nc3ccccc3n2CCN2CCCCC2)n1`, the inhibition is inactive: 1.04%.

Turning to `CCCC(=O)Nc1ccc(C(=O)/C=C/c2ccc(SC)cc2)cc1`, the inhibition was inactive: 1.81%.

Turning to `CC(C)(C)NC(=O)Cn1c(SCC(=O)NCc2cccs2)nc2ccccc21`, the inhibition was inactive: 1.94%.

`O=C(Cn1c(=O)n(CC2CS2)c2ccccc21)N1CCCCCC1` (stereo unspecified): the inhibition is inactive: 8.81%.

As for `O=C(Cn1c(SCC(=O)N2CCc3ccccc32)nc2ccccc21)NC1CCCC1`, the inhibition is inactive: -18.5%.

In the case of `O=C(Cn1cnc2ccccc21)Nc1cc(C(F)(F)F)ccc1N1CCOCC1`, the inhibition was inactive: -14.4%.

With `Cn1c(=O)c2c(ncn2CC(=O)Nc2ccc(Cl)cc2Cl)n(C)c1=O`, the inhibition is inactive: 0.66%.

Consider `COc1ccccc1N1CCN(C(=O)Cn2cnc3c2c(=O)n(C)c(=O)n3C)CC1`, for which the inhibition is inactive: 14.9%.

`Cn1c(=O)[nH]c(=O)c2c1nc(CN1CCN(c3cccc(Cl)c3)CC1)n2CCN1CCOCC1`: the inhibition was inactive: 10.7%.

For the compound `CSc1nc(N)nc2c1ncn2CC(=O)NCC1CCCO1` (stereo unspecified), the inhibition was inactive: 8.51%.

`O=C(Cn1c(-c2ccccc2Cl)nc2ccccc21)Nc1cccc(Cl)c1`: the inhibition is inactive: 6.03%.

`Cn1c(=O)c2ncn(CC(=O)NCCOCc3ccccc3Cl)c2n(C)c1=O`: the inhibition was inactive: 3.37%.

As for `Cn1c(=O)c2c(ncn2CC(=O)Nc2ccccc2Sc2ccccc2)n(C)c1=O`, the inhibition was inactive: 11.2%.

For the compound `Cc1ccc(NC(=O)Cn2cnc3c(NCc4ccccc4)ncnc32)cc1C`, the inhibition was inactive: 8.13%.

For `Cc1ccc2c(c1)C1C[N+](C)(CC(=O)Nc3ccccc3Cl)CCC1N2C(=O)c1ccccc1Cl` (stereo unspecified), the inhibition is inactive: 3.79%.

For the compound `Nc1cccc([As](=O)(O)c2ccccc2)c1`, the inhibition was inactive: -9.09%.

Regarding `CCOCN(C(=O)Cn1c(COC)nc2ccccc21)c1c(C)cccc1CC`, the inhibition was inactive: 3.38%.

Turning to `Cc1ccc2c(c1)C1CN(C)CCC1N2C(=O)Cn1nnc(-c2ccccc2F)n1` (stereo unspecified), the inhibition was inactive: 0.47%.

Regarding `Cn1c(CNc2nc3ccccc3n2CCN2CCCCC2)nc2ccccc21`, the inhibition is inactive: -5.26%.

Take `Cc1ccc(S(=O)(=O)N2CCN(C(=O)Cn3cnc4c3c(=O)n(C)c(=O)n4C)CC2)cc1C`: the inhibition was inactive: 7.35%.

In the case of `Cc1cc(NC(=O)Cn2cnc3c2c(=O)n(C)c(=O)n3C)n(-c2ccccc2)n1`, the inhibition is inactive: -2.4%.

Regarding `NS(=O)(=O)c1cccc(NC(=O)COC(=O)C(O)(c2ccccc2)c2ccccc2)c1`, the inhibition is inactive: 9.28%.

On to `O=C(NCCn1c(-c2ccncc2)nc2ccccc21)[C@H]1CCCN1c1nc(CN2CCCCC2)cs1`, for which the inhibition is inactive: -2.23%.

Consider `CC(C)C[C@H](NC(=O)N1CCn2c1nc1ccccc12)C(=O)NCc1ccco1`, for which the inhibition is inactive: 12.6%.

Consider `COC(=O)[C@H](Cc1ccc(O)cc1)NC(=O)Cn1cnc2c(OCc3ccccc3)ncnc21`, for which the inhibition was inactive: 3.91%.

For the compound `Cc1ccc2c(c1)C1CN(C)CCC1N2C(=O)c1ccccc1NS(=O)(=O)c1ccc(F)cc1C` (stereo unspecified), the inhibition was inactive: 4.73%.

Regarding `O=P1(Nc2ccc(Br)cn2)COc2ccccc2OC1`, the inhibition is inactive: 3.96%.

As for `O=[As](O)(c1cccs1)c1cccs1`, the inhibition was inactive: -23.6%.

Turning to `CCc1ccccc1NC(=O)CSc1nc2ccccc2n1CC(=O)N1CCCC1`, the inhibition was inactive: 0.88%.

Consider `Cc1ccc(C(=O)N(C)c2ccc(OCC(=O)N3c4ccc(C)cc4C4CN(C)CCC43)cc2)cc1` (stereo unspecified), for which the inhibition was inactive: 7.6%.

In the case of `C[C@H](O)[C@@H]1C(=O)N2CCc3ccc(N4CCN(C)CC4)cc3[C@@H]2C[C@@H]1N(C)C(=O)Nc1cc(Cl)cc(Cl)c1`, the inhibition is inactive: 11%.

With `Cc1ccc(OCC(=O)OC2CN3CCC2CC3)cc1` (stereo unspecified), the inhibition is inactive: 4.36%.

Regarding `CCC(=O)N1CCn2c1nc1ccccc12`, the inhibition is inactive: -14.8%.

`NC(=O)Cn1c(S(=O)(=O)Cc2ccccc2)nc2ccccc21`: the inhibition was inactive: 12.2%.

For the compound `CC(c1ccccc1)N1CCn2c(nc3cc(NC(=O)c4cccs4)ccc32)C1` (stereo unspecified), the inhibition was inactive: 25.3%.

As to `O=C1CC(N2CCC(n3c(=O)[nH]c4ccccc43)CC2)C(=O)N1c1ccc(F)cc1` (stereo unspecified), the inhibition was inactive: -4.46%.

On to `CC(C)N(C(=O)Cn1c(SCC(=O)NCc2ccc3c(c2)OCO3)nc2ccccc21)C(C)C`, for which the inhibition was inactive: 5.31%.

On to `N=c1n(CCN2CCOCC2)c2ccccc2n1Cc1ccccc1Br`, for which the inhibition is inactive: -5.16%.

For `CCc1ccccc1NC(=O)CSc1nc2ccccc2n1CC(=O)N(C)C`, the inhibition is inactive: -11.4%.

In the case of `O=S(=O)(Nc1ccc2c(c1)nc1n2CCN(Cc2ccccc2)C1)c1ccc(Cl)cc1`, the inhibition is inactive: -23.1%.

On to `O=C(Cn1cnc2ccccc21)N/N=C/c1cccs1`, for which the inhibition was inactive: -15.3%.

On to `CN(C)CCn1cnc2c1c(=O)[nH]c(=O)n2Cc1ccccc1`, for which the inhibition is inactive: -15.9%.

With `Cc1ccc2c(c1)C1CN(C)CCC1N2C(=O)c1ccc(Br)o1` (stereo unspecified), the inhibition is inactive: 3.02%.

With `Cc1ccc2c(c1)C1CN(C)CCC1N2C(=O)/C(C#N)=C/c1ccc2c(c1)OCO2` (stereo unspecified), the inhibition was inactive: -47.8%.

For the compound `COC(=O)CSc1nc2ccccc2n1CC(=O)N(C(C)C)C(C)C`, the inhibition is inactive: 8.19%.

Regarding `O=P1(Nc2ncccn2)COc2ccccc2OC1`, the inhibition was inactive: 3.01%.

Regarding `Cn1c(=O)[nH]c(=O)c2c1nc(N1CCOCC1)n2CCN1CCOCC1`, the inhibition is inactive: 0.49%.

Take `CCN(CC)C(=O)N1CCn2c(nc3ccccc32)C1`: the inhibition is inactive: -26.6%.

For the compound `Fc1ccc2c(c1)nnn2C1CCN(Cc2nnnn2C2CCCCC2)CC1`, the inhibition is inactive: 1.02%.

Take `COC(=O)[C@@H](Cc1ccccc1)NC(=O)Cn1cnc2c(SC)nc(N)nc21`: the inhibition is inactive: -4.98%.

`COC(CNC(=O)CC1C(=O)N(Cc2ccccc2)C(C)c2nc3ccccc3n21)OC` (stereo unspecified): the inhibition is inactive: -0.14%.

As to `NNC(=O)Cn1c(COc2ccc(Cl)cc2)nc2ccccc21`, the inhibition is inactive: 6.28%.

On to `NC(=O)CC(NC(=O)Cc1cccc2ccccc12)c1ccc(NC2CCN(Cc3ccccc3)CC2)c([N+](=O)[O-])c1` (stereo unspecified), for which the inhibition was inactive: 10%.

Usually inhibition stands for the drop in the measured response relative to a control, in per cent.
